Test results from PubChem BioAssay AID488847 (NMMLSC, 2010).
Only a part is listed here, and it is no random draw. Calls of active or inactive are those of the source.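 Rule for the calls: active = inhibition of aptamer binding above 40%, roughly 3 SD of noise, on plates passing a quality check; inactive = the rest.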

By UniProt entry, the sequences of proteins in these tests, tags left out.
UniProt P25098, whole entry: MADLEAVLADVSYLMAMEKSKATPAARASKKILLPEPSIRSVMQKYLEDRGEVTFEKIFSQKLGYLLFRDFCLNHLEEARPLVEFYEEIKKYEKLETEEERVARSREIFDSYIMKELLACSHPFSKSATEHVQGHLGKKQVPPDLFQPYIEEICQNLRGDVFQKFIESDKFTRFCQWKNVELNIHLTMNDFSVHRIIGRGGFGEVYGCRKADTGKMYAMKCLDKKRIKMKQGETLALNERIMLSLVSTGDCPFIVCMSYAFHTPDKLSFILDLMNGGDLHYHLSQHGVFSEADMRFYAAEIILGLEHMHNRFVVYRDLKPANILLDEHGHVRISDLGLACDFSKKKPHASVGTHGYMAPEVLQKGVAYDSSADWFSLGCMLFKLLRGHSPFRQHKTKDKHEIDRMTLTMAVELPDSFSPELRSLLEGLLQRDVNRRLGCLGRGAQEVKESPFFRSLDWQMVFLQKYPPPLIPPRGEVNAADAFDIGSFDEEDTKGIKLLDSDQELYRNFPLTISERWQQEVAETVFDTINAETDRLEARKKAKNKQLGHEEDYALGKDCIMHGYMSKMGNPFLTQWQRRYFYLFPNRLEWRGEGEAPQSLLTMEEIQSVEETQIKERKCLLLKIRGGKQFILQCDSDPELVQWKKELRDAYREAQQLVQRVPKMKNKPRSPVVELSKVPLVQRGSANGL

Target: Beta-adrenergic receptor kinase 1 (Homo sapiens) (UniProt P25098)
Assay: compounds blocking aptamer binding on GRK2 – biochemical, human GRK2, bead flow cytometry, HTS, primary screen (AID 488847);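 note: median bead fluorescence of bound FAM aptamer so fluorescent compounds give negative values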
Settings: FAM-aptamer displacement from GRK2, at 10 µM, active compounds read high

Row | Compound | inhibition of aptamer binding
1 | CCC(=O)N(c1ccccc1)C1(COC)CCN(CCn2nnn(CC)c2=O)CC1 | inactive: 3%
2 | CCC(=O)N(c1ccccc1)C1(COC)CCN(CCc2cccs2)CC1 | inactive: 4%
